Here are results for one compound from US7276233B2, “Methods of treating neoplasia with combinations of target cell-specific adenovirus and chemotherapy” (priority 2001, dated 2007).

For one data set, the system named is Hep3B cells. The data set can be described thus: Cell viability assay (MTT) and isobologram, CV890 with doxorubicin. The conditions noted are these: doxorubicin at 10 ng/ml alone.
For data set [1], the system named is Hep3B hepatoma xenografts. The data set can be described thus: Hep3B xenograft, CV790 or CV890 with doxorubicin (Example 5). The conditions noted are these: virus 1×10^11 particles i.v. alone or doxorubicin 10 mg/kg alone, time printed as week 6 / 4 weeks after treatment. In kind it is in vivo, nude mice. An excerpt: CV790 is an AFP producing hepatocellular carcinoma specific adenovirus, with E1A and E1B under the control of an identical AFP promoter (827 bp) and enhancer with an E3 region. The CV890 adenovirus construct is also a hepatoma or liver-specific adenoviral mutant with the E1A and E1B genes under transcriptional control of 827 bp AFP promoter, wherein E1B is under translational control of EMCV IRES and having an intact E3 region. The structure of CV890 therefore reads as AFP/E1A, IRES/E1B, E2, E3, E4. In vivo studies of the efficacy of combinations of CV790 and doxorubicin and CV890 and doxorubicin were performed according to the protocols described in detail in Example 4, with minor alterations which are described below.
Xenografts in the study of CV790 and CV890 combined with chemotherapeutic agents utilized liver carcinoma Hep3B cells, instead of LNCaP prostate carcinoma. Virus, CV790 or CV890, was administered by a single intravenous injection of 1×10^11 particles through the tail veins of the nude mice. One day after virus delivery, a single dose of doxorubicin was given to each animal by i.p. injection. The doxorubicin dose was 10 mg/kg for both doxorubicin alone and doxorubicin combined with virus treatments. Tumor volume was measured once a week for six weeks according to the protocol in Example 4.

Turning to `COc1cccc2c1C(=O)c1c(O)c3c(c(O)c1C2=O)C[C@@](O)(C(=O)CO)C[C@@H]3O[C@H]1C[C@H](N)[C@H](O)[C@H](C)O1` [doxorubicin], in the data set on Hep3B cells, the cytotoxicity entry is listed as “did not generate cytotoxicity”. For the same compound, the relative tumor volume is 280% in data set [1] (CV790 study) and 500% in data set [1] (CV890 study).
